Assay results as given in patent publication US20190345536A1, “DETECTION METHOD FOR CHROMOSOMAL ABNORMALITIES AND METHOD FOR EVALUATING INDUCIBILITY” (Sumitomo Chemical Company, Limited, priority 2016, published 2019).

Test system: human iPS cell-derived T lymphocyte

In the case of `COc1cc2c(c(OC)c1OC)-c1ccc(OC)c(=O)cc1[C@@H](NC(C)=O)CC2` [COL, colchicine], the “judgment result obtained in this Example (in vitro micronucleus test)” value is reported as “positive”.
